Experimental data taken from ChEMBL document CHEMBL6109156, “Discovery of Dual PD-L1/HDAC3 Inhibitors for Tumor Immunotherapy” (J Med Chem, 2025).

Experiments:
[1] = organism: Homo sapiens; assay: Selectivity index, ratio of IC50 for inhibition of human recombinant HDAC3 using Ac-Leu-Gly-Lys (Ac)-AMC as substrate to IC50 for inhibition of human recombinant HDAC6 using Ac-Leu-Gly-Lys (Ac)-AMC as substrate
[2] = organism: Homo sapiens; assay: Selectivity index, ratio of IC50 for inhibition of human recombinant HDAC3 using Ac-Leu-Gly-Lys (Tfa)-AMC as substrate to IC50 for inhibition of human recombinant HDAC8 using Ac-Leu-Gly-Lys (Ac)-AMC as substrate
[3] = organism: Homo sapiens; assay: Selectivity index, ratio of IC50 for inhibition of human recombinant HDAC3 using Ac-Leu-Gly-Lys (Ac)-AMC as substrate to IC50 for inhibition of human recombinant HDAC1 using Ac-Leu-Gly-Lys (Ac)-AMC as substrate

Ratio IC50 [1]	Ratio IC50 [2]	Ratio IC50 [3]	SMILES
> 21	> 21	> 21	CCCNNC(=O)CCCNCc1ccc(-c2cccc(-c3ccccc3)c2C)nc1OC
> 13	> 13	> 13	CCCNNC(=O)c1cnc(NCCNCc2ccc(-c3cccc(-c4ccccc4)c3C)nc2OC)cn1
